# Assay results as given in patent US9200045B2, “Small molecule-dependent inteins and uses thereof” (President and Fellows of Harvard College, priority 2011, dated 2015).
# B1: 30R3-1: evolved 4-HT-dependent intein (RecA intein with estrogen receptor ligand-binding domain), clone from 30° C. evolution, Round 3 (protein)
# chain: CLAEGTRIFDPVTGTTHRIEDVVDGRKPIHVVAAAKDGTLLARPVVSWFDQGTRDVIGLRIAGGATVWATPDHKVLTEYGWRAAGELRKGDRVAGPGGSGNSLALSLTADQMVSALLDAEPPIPYSEYDPTSPFSEASMMGLLTNLADRELVHMINWAKRVPGFVDLTLHDQAHLLECAWLEILMIGLVWRSMEHPGKLLFAPNLLLDRNQGKCVEGMVEIFDMLLATSSRFRMMNLQGEEFVCLKSIILLNSGVYTFLSSTLKSLEEKDHIHRALDKITDTLIHLMAKAGLTLQQQHQRLAQLLLILSHIRHMSNKGMEHLYSMKYKNVVPLYDLLLEMLDAHRLHAGGSGASRVQAFADALDDKFLHDMLAEGLRYSVIREVLPTRRARTFDLEVEELHTLVAEGVVVHNC
# System: GFP, mCherry, Gli1, and Gli3T
# Experiment: Intein splicing across all four proteins tested in mammalian cells
# Conditions: no 4-HT
molecule,measurement,value
B1,background splicing in the absence of 4-HT,≤ 3%
